# AlphaSeq binding of Ab-14 heavy chain variants to a spike HR2 peptide

Target peptide (SARS-CoV-2 spike, HR2 region): PDVDLGDISGINAS

Each scFv is VH, three GGGGS repeats, VL, as in the parent Ab-14, and differs from it in the CDRs of the heavy chain only.
VH: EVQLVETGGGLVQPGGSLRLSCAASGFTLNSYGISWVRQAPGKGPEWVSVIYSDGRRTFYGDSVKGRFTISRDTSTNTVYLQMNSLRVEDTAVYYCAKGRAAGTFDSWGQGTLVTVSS
VL: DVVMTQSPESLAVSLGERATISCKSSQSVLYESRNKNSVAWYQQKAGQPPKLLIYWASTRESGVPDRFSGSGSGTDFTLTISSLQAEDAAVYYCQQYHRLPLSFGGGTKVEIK

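Library AAYL49 holds single substitutions and randomly drawn double and triple substitutions in the CDRs. AlphaSeq pools MATa yeast showing the antibodies with MATalpha yeast showing the peptide. Mating (16 h, 30 °C) was followed by selection of diploids and sequencing of their barcodes. A regression on co-assayed BCL2-family reference pairs converts the normalised counts of each replicate to an apparent Kd. Each pool was mated in three replicate cultures.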

Positions count from residue 1 of the parent VH; G33V puts V in place of G. The read-out is the apparent dissociation constant on a log10 scale (nM): the lower, the stronger. A mean of the replicates is given; it leaves out those without a signal. "ND" marks a missing value. The strain was present, yet no cells mated with the target were sequenced in that replicate, which points to weak or no binding.

With G33V+Y52I the result was ND, 4.24, 4.92 (mean 4.58; controls 2 of 9).
With T28F+G103Y the result was ND, ND, ND (controls 0 of 9).
With F27N+G103Q+D106V the result was ND, ND, ND (controls 0 of 9).
With S31I+D62Y the result was ND, 4.66, ND (controls 1 of 9).
With F27H+L29Q+R56S the result was ND, ND, ND (controls 1 of 9).
With R56K the result was 0.56, 0.79, 0.70 (mean 0.68; controls 2 of 9).
With D54Q+G61K+T104N the result was 6.27, 3.80, 4.23 (mean 4.76; controls 4 of 9).
With N30A+G61A+D106V the result was 0.27, 0.47, 0.18 (mean 0.31; controls 2 of 9).
With S35V+Y52C+G61F the result was ND, ND, ND (controls 0 of 9).
With F27G+G99K+G103K the result was 1.47, 1.62, 2.00 (mean 1.70; controls 1 of 9).
With I51N+Y60C the result was ND, ND, ND (controls 0 of 9).
With F59G+G61Y+R100H the result was 0.49, 0.80, 0.47 (mean 0.59; controls 1 of 9).
With G33M+G99I+T104V the result was ND, ND, ND (controls 0 of 9).
With D54G+D62K+S63W the result was ND, ND, ND (controls 2 of 9).
With V50N+D54A+F59R the result was ND, ND, ND (controls 0 of 9).
With F27L+T58S+K65Y the result was ND, 3.58, 3.60 (mean 3.59; controls 0 of 9).
With N30A+Y60W+F105C the result was 4.45, ND, ND (controls 3 of 9).
With D54L+R56N+D62G the result was ND, ND, ND (controls 1 of 9).
With F27V+G99A the result was ND, ND, ND (controls 1 of 9).
With G55S+R57F+D62A the result was ND, 4.25, ND (controls 0 of 9).
With N30E+G33R+D54M the result was ND, ND, ND (controls 0 of 9).
With I34G+T104N+S107D the result was ND, ND, ND (controls 0 of 9).
With Y32H+V50L+R56Q the result was ND, ND, ND (controls 1 of 9).
With S35Y+Y52C+Y60K the result was ND, ND, ND (controls 0 of 9).
With I34Q+R57M+A101F the result was ND, ND, ND (controls 0 of 9).
With V50C+R100E the result was 2.45, 2.99, 2.67 (mean 2.70; controls 2 of 9).
With G26F+L29Y+S63H the result was ND, ND, ND (controls 0 of 9).
With F27Q+T28Y+G103R the result was ND, ND, ND (controls 0 of 9).
With G33H+K65T+T104D the result was 6.50, ND, 4.47 (mean 5.49; controls 4 of 9).
With L29G+A101R+A102L the result was ND, ND, ND (controls 1 of 9).

Nonspecific signal, from three strains lacking the peptide, appeared in 15% of pairings of library AAYL49, centred on 4.06 (5% of these signals below 2.83); values are not corrected for it. For each scFv, signals with the empty controls are counted beside the result. Parent in this assay: reference entry 0.65, copy in this library 4.11 (one replicate of three).

Reference: Engelhart et al. 2022, doi:10.1038/s41597-022-01779-4. File: FLAb, binding data.